Laboratory results from patent US20230374035A1, “RAS INHIBITORS” (Revolution Medicines, Inc., priority 2019, published 2023).

Tests used:
Capan-1 (K-Ras G12V) = test: Potency assay: pERK; details: read-out: Capan-1 pERK EC50
AsPC-1 (K-Ras G12D) = test: Potency assay: pERK; details: read-out: ASPC-1 pERK EC50
NCI-H358 (K-Ras G12C) = test: CellTiter-Glo Cell Viability Assay; details: read-out: H358 Cell Viability IC50; H358, 5-day treatment

Work on `CCn1c(-c2cccnc2[C@H](C)OC)c2c3cc(ccc31)-c1cc(O)cc(c1)C[C@H](NC(=O)[C@H](C(C)C)N(C)C(C)=O)C(=O)N1CCC[C@H](N1)C(=O)OCC(C)(C)C2` yielded an EC50 (Capan-1 (K-Ras G12V)) of 52 nM, an EC50 (AsPC-1 (K-Ras G12D)) of 706 nM and an IC50 (NCI-H358 (K-Ras G12C)) of 226 nM.
